# Data taken from US20170349949A1, “METHODS OF SELECTING SUBJECTS FOR TREATMENT WITH METABOLIC MODULATORS” (Partikula LLC, priority 2016, published 2017).
# Test system: HCT116 tumors
# Experiment: KULA2 in mice harboring HCT116 tumors (MPC null)
# Format: in vivo
# Conditions: comparator results named beside KULA2 in HCT116; dose and source not given
# Method: HCT116 represents the MPC null group, having minimal to no expression of MPC1 or MPC2. CT26 is the MPC+ group. MPC levels were verified via western blotting or otherwise known (see, e.g., Schell, et al., Molecular Cell, 56:400-413 (2014)).
# In both models HCT116 and CT26 the mice (between 8-10 per arm) were dosed with KULA2 via i.p. injection and vehicle, HCT116 tumors at a dose of 20 mg/kg, and CT26 tumors at a dose of 18 mg/kg. Dosing schedule in both cases was 5 days on, 2 days off for the duration of the study.
# Experiments were designed to determine if MPC expression correlates with the efficacy of PDK inhibitor. A PDK inhibitor, KULA2, was administered to mice harboring HCT116 tumors (at a dose of 20 mg/kg) or CT26 tumors (at a dose of 18 mg/kg). […] However in the CT26 MPC positive model, KULA2 inhibits tumors by about 55%. […] The results also indicate that MPC expression can used as a biomarker to select subjects for treatment with KULA2, other PDK inhibitors, and other modulators to the TCA and oxidative phosphorylation downstream of pyruvate import into the mitochondria.
substance,measurement,value
Erbitux: comparator named for tumor inhibition,tumor inhibition (comparators),7%
